This is an account of results in PMC11124870, “Effect of Antioxidants in Medicinal Products on Intestinal Drug Transporters” (Pharmaceutics, 2024).

The chains behind the UniProt entries cited, without tags or fusion partners. Where a name states a change or a piece, a line headed by the entry shows the natural chain unless it says otherwise.
UniProt O94956: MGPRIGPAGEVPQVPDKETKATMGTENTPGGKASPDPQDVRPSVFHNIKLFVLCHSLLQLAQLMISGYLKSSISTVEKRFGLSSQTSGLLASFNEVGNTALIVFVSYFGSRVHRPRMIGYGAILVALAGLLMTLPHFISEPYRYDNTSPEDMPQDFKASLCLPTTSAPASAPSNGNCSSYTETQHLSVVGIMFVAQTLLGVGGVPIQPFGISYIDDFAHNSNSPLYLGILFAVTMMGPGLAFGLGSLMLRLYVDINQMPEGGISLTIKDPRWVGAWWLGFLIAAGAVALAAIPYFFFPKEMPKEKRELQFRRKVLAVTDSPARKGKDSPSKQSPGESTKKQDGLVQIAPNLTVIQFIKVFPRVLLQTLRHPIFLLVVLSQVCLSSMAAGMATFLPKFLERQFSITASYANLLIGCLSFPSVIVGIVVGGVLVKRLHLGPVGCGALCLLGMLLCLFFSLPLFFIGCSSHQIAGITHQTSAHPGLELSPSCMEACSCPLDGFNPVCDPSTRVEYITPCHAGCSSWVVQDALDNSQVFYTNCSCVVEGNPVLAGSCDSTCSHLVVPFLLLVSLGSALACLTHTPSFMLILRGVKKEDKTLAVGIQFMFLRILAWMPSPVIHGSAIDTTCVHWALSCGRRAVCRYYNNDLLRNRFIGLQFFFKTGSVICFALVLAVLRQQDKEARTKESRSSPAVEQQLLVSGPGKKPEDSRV

The target in this experiment is OATP2B1 (Homo sapiens, UniProt O94956). The experiment can be described thus: Uptake transporter assay, 3H-estrone sulfate uptake in HEK-293-OATP2B1 cells. As to conditions: antioxidant 200 µM, uptake with DMSO set as 100%, mean ± SD, three replicates.

On to `C#Cc1cccc(Nc2ncnc3cc(OCCOC)c(OCCOC)cc23)c1` [Erlotinib, reference compound], for which the “% Uptake of 3H-ES OATP2B1” value is listed as 10.5 ± 2.8%.
